Experimental data: ChEMBL document CHEMBL3885861, “Open TG-GATES”

Organism: Rattus norvegicus
Assay: Open TG-GATES - Regimen: Daily Repeat
Format: toxicity, organism-based, Sprague-Dawley
Parameters: regimen Daily Repeat, gender Male, age 6 weeks
Conditions: in vivo, po, route gavage; for PT: tissue Blood; for LIVER: tissue Liver
[1] = 0 mg/kg, 72 h, dose level Control, time 3 day
[2] = 0 mg/kg, 72 h, tissue Plasma, dose level Control, time 3 day
[3] = 0 mg/kg, […], dose level Control, time 7 day
[4] = 0 mg/kg, […], dose level Control, time 14 day
[5] = 0 mg/kg, […], dose level Control, time 28 day
[6] = 0 mg/kg, […], tissue Plasma, dose level Control, time 14 day
[7] = 0 mg/kg, […], tissue Plasma, dose level Control, time 28 day
[8] = 10 mg/kg, 72 h, tissue Plasma, dose level Low, time 3 day
[9] = 10 mg/kg, […], dose level Low, time 7 day
[10] = 10 mg/kg, […], dose level Low, time 14 day
[11] = 10 mg/kg, […], dose level Low, time 28 day
[12] = 10 mg/kg, […], tissue Plasma, dose level Low, time 7 day
[13] = 10 mg/kg, […], tissue Plasma, dose level Low, time 14 day
[14] = 30 mg/kg, 72 h, dose level Middle, time 3 day
[15] = 30 mg/kg, 72 h, tissue Plasma, dose level Middle, time 3 day
[16] = 30 mg/kg, […], dose level Middle, time 7 day
[17] = 30 mg/kg, […], dose level Middle, time 14 day
[18] = 30 mg/kg, […], dose level Middle, time 28 day
[19] = 30 mg/kg, […], tissue Plasma, dose level Middle, time 7 day
[20] = 30 mg/kg, […], tissue Plasma, dose level Middle, time 14 day
[21] = 30 mg/kg, […], tissue Plasma, dose level Middle, time 28 day
[22] = 100 mg/kg, 72 h, dose level High, time 3 day
[23] = 100 mg/kg, 72 h, tissue Plasma, dose level High, time 3 day
[24] = 100 mg/kg, […], dose level High, time 7 day
[25] = 100 mg/kg, […], dose level High, time 14 day
[26] = 100 mg/kg, […], dose level High, time 28 day
[27] = 100 mg/kg, […], tissue Plasma, dose level High, time 7 day
[28] = 100 mg/kg, […], tissue Plasma, dose level High, time 14 day

Structure (SMILES): CN(C)CCC=C1c2ccccc2COc2ccccc21 [DOXEPIN]
- PT [1]: 12.9 s
- LIVER [1]: 10.9 g
- Ca [2]: 10.9 mg/dL
- Cl [2]: 106 meq/L
- PT [3]: 13 s
- PT [4]: 12.7 s
- PT [5]: 12.8 s
- LIVER [3]: 12.3 g
- LIVER [4]: 13.5 g
- LIVER [5]: 17.6 g
- Ca (0 mg/kg, […], tissue Plasma, dose level Control, time 7 day): 10.9 mg/dL
- Ca [6]: 10.7 mg/dL
- Cl [6]: 106.8 meq/L
- Ca [7]: 10.6 mg/dL
- Cl [7]: 105.8 meq/L
- PT (10 mg/kg, 72 h, dose level Low, time 3 day): 12.9 s
- Ca [8]: 10.9 mg/dL
- Cl [8]: 106.2 meq/L
- PT [9]: 12.9 s
- PT [10]: 12.9 s
- PT [11]: 12.9 s
- LIVER [9]: 12 g
- LIVER [10]: 14.2 g
- LIVER [11]: 15.1 g
- Ca [12]: 10.9 mg/dL
- Cl [12]: 106.4 meq/L
- Ca [13]: 10.8 mg/dL
- Cl [13]: 106.2 meq/L
- TG [13]: 138.4 mg/dL
- Cl (10 mg/kg, […], tissue Plasma, dose level Low, time 28 day): 107.6 meq/L
- PT [14]: 13.1 s
- LIVER [14]: 10.2 g
- Ca [15]: 11.2 mg/dL
- Cl [15]: 107.4 meq/L
- PT [16]: 13 s
- PT [17]: 12.9 s
- PT [18]: 13.3 s
- LIVER [16]: 11.9 g
- LIVER [17]: 13.4 g
- LIVER [18]: 16.3 g
- Ca [19]: 10.9 mg/dL
- Cl [19]: 105.8 meq/L
- Ca [20]: 10.8 mg/dL
- Cl [20]: 106.8 meq/L
- BUN [21]: 17 mg/dL
- Ca [21]: 10.4 mg/dL
- Cl [21]: 106.8 meq/L
- PT [22]: 13.2 s
- LIVER [22]: 9.3 g
- Ca [23]: 11.1 mg/dL
- Cl [23]: 105.6 meq/L
- PT [24]: 12.9 s
- PT [25]: 13 s
- PT [26]: 13.3 s
- LIVER [24]: 11 g
- LIVER [25]: 12.5 g
- LIVER [26]: 14.2 g
- Ca [27]: 11.1 mg/dL
- Cl [27]: 104.6 meq/L
- Ca [28]: 10.8 mg/dL
- Cl [28]: 103.8 meq/L
- Cl (100 mg/kg, […], tissue Plasma, dose level High, time 28 day): 104.4 meq/L
